The target in test [1] is T1, mCRFR2β (Mus musculus, UniProt Q60748).
T1 construct: expressed in transfected cells; host or cells: HEK 293 cells, stably transfected (HEK-mCRFR2β); membrane homogenates
The experiment in a line: cAMP stimulation / inhibition of Svg-stimulated cAMP production in HEK-mCRFR2β cells. Format: cell-based. How it is done:
(§1) HEK-rCRFR1 cells or HEK-mCRFR2β cells were incubated with different CRF agonists in the presence or absence of 1 μM or 10 nM antagonist, or CRF antagonist (c=1 μM) alone. After removal of the medium, cells were lyzed with aqueous 6% trichloroacetic acid (5 min, 100° C.) (Rühmann, A., A. K. E. Köpke, F. M. Dautzenberg, and J. Spiess, Proc. Natl. Acad. Sci. USA 93: 10609-10613, 1996). The cell lysates were stored at −70° C. until assayed with a RIA kit (Amersham, Little Chalfont). […] Statistical significance was determined across groups with ANOVA, and significant differences between groups were determined by post hoc comparison using the Dunn test.
(§2) Intrinsic activities were measured at peptide concentrations generating maximal formation of cAMP in HEK-rCRFR1 or HEK-mCRFR2β cells.
On the technique in general: cAMP levels reflect the balance of adenylyl cyclase and phosphodiesterase activity.

Test [2] concerns the target T2, rCRFR1 (Rattus norvegicus, UniProt P35353).
T2 construct: expressed in transfected cells; host or cells: HEK 293 cells, stably transfected (HEK-rCRFR1)
T2 sequence (P35353 24-415): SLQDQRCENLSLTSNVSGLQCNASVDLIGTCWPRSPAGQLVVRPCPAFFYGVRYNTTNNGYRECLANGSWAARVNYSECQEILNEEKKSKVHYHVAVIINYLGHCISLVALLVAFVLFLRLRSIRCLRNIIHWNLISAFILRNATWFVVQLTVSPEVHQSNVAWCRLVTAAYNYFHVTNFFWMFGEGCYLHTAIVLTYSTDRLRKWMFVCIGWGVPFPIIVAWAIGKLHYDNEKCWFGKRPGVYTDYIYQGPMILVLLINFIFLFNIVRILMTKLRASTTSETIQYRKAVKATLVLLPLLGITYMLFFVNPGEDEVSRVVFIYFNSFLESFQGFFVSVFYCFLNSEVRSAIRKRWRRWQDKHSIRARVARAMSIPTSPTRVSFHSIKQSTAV
The test can be described thus: cAMP stimulation / inhibition of oCRF-stimulated cAMP production in HEK-rCRFR1 cells. Format: cell-based. How it is done: as §1, §2

Test [3] has as its target T1, mCRFR2β. The experiment in a line: Displacement of [^125I-Tyr^0]Svg from membranes of HEK-mCRFR2β cells. Format: binding. How it is done: (§3) Binding assays were performed in 96-well MultiScreen plates (Millipore, Eschborn, Germany) with GF/B filters (pore size 1.0 μm). […] After incubation (60 min, 23° C.), membrane suspension was aspirated through the plate, followed by two washes with assay buffer (0.2 ml, 23°). Radioactivity of the punched filters was measured with a 1470 WIZARD automatic gamma counter (Berthold, Hannover). […] Statistical analysis was performed with ANOVA, and significant differences between groups were determined by post hoc comparison using the Dunn test.
(§4) Membrane homogenates of human embryonic kidney (HEK) 293 cells stably transfected with cDNA coding for rat CRF receptor, type 1 (rCRFR1) or mouse CRF receptor, type 2β (mCRFR2β) were prepared according to standard protocols (see, e.g., Sambrook et al., Molecular Cloning: A Laboratory Manual, 2nd. Edition, Cold Spring Habor Laboratory Press, Cold Spring Habor, N.Y., 1989; Ausubel et al., Current Protocols in Molecular Biology, Green Publishing Associates and Wiley Interscience, NY, 1989).

Test [4] has as its target T2, rCRFR1. The experiment in a line: Displacement of [^125I-Tyr^0]oCRF from membranes of HEK-rCRFR1 cells. Format: binding. How it is done:
as §3, §4

For test [5], the target named is T3, rat CRF receptor, type 1 (rCRFR1) (rat, UniProt P35353 24-415).
T3 construct: whole, on cells; cAMP assays on the whole cells; also called HEK-rCRFR1 cells
T3 sequence (looked up): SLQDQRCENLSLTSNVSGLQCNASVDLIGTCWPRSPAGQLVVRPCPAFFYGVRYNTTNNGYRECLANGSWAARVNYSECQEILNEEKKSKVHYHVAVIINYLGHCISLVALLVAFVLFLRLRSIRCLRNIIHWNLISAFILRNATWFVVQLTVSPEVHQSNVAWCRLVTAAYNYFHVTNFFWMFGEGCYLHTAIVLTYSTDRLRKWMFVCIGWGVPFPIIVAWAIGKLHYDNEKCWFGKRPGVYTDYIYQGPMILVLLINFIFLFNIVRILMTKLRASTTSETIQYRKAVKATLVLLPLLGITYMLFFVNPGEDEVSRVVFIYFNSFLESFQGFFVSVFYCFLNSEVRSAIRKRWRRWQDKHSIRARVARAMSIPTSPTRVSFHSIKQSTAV
The experiment in a line: displacement of [125I-Tyr0]oCRF from HEK-rCRFR1 membranes. (In a radioligand displacement assay an active substance lowers the binding of a labelled ligand.)

Test [6] has as its target mouse CRF receptor, type 2β (mCRFR2β) (mouse) (UniProt Q60748). The test can be described thus: displacement of [125I-Tyr0]Svg from HEK-mCRFR2β membranes.
Test [7] concerns the target T3, rat CRF receptor, type 1 (rCRFR1). The test can be described thus: displacement of [125I-Tyr0]oCRF from HEK-rCRFR1 membranes. How it is done:
as §3
The source holds these as a separate data set.

For test [8], the target named is mouse CRF receptor, type 2β (mCRFR2β) (mouse) (UniProt Q60748). The test can be described thus: Kd(rCRFR1)/Kd(mCRFR2β) of the peptide normalised to that of astressin; radioligand displacement.
Test [9] has as its target T3, rat CRF receptor, type 1 (rCRFR1). The test can be described thus: displacement of [125I-Tyr0]oCRF from HEK-rCRFR1 membranes. How it is done: as §3
This is another data set of the same source.

Setting [10] is: read-out: Kd(mCRFR2β), Table 1, [^125I-Tyr^0]Svg as competitive ligand, recombinant mCRFR2β, HEK 293 membranes.
Setting [11] is: read-out: Kd(rCRFR1), Table 1, [^125I-Tyr^0]oCRF as competitive ligand, recombinant rCRFR1, HEK 293 membranes.
Where [12] appears, read: read-out: Kd, binding to mCRFR2β, membranes of HEK-mCRFR2β cells.
Setting [13] is: read-out: Kd, binding to rCRFR1, membranes of HEK-rCRFR1 cells.

Read-outs that look alike come from different tables or passages of the source. Marks after values point to notes of the source that are not given here. Positions of bridges follow the written chain, without caps; N, C: chain ends. Non-standard residues stand in square brackets, D forms with d. No end group written: not given here. *: point of attachment. ATB = 4-(1-azi-2,2,2-trifluoroethyl)benzoyl, O=C(c1ccc(C2(C(F)(F)F)N=N2)cc1)*; Nle = CCCC[C@H](N)C(=O)O

As to “cyclo(30-33)[DPhe^12, Nle^21,38, Glu^30, Lys^33]h/rCRF(12-41) [compound 3, reference compound]”, the “mCRFR2β relative in vitro potency” value at mCRFR2β [1] (Table 2, 10 nM antagonist, cAMP production stimulated by 1 nM Svg, Svg alone = 1.00 (lower = stronger inhibition)) is on record as 0.57 ± 0.04. In addition, the “HEK-mCRFR2β cells rel. pot. (relative potency)” value on mCRFR2β [1] (Table 4, 10 nM antagonist, cAMP production stimulated by 1 nM Svg, Svg alone = 1.00) is reported as 0.57 ± 0.04. Moreover, the “HEK-mCRFR2β cells rel. IA (relative intrinsic activity)” value at mCRFR2β [1] (Table 4, 1 μM CRF antagonist alone, cAMP production, Svg = 1.00) came to 0.004 ± 0.001. For the same molecule, the “rCRFR1 relative in vitro potency” value at rCRFR1 [2] (Table 2, 1 μM antagonist, cAMP production stimulated by 1 nM oCRF, oCRF alone = 1.00 (lower = stronger inhibition)) is given as 0.11 ± 0.03^f. For the same molecule, the “HEK-rCRFR1 cells rel. IA (relative intrinsic activity)” value on rCRFR1 [2] (Table 4, 1 μM CRF antagonist alone, cAMP production, oCRF = 1.00) turned out to be 0.10 ± 0.02. Also, the “HEK-rCRFR1 cells rel. pot. (relative potency)” value on rCRFR1 [2] (Table 4, 1 μM antagonist, cAMP production stimulated by 1 nM oCRF, oCRF alone = 1.00) is recorded as 0.11 ± 0.03.

Broadly, the Kd is the free concentration of one partner at which half of the binding sites on the other are occupied at equilibrium, for simple one-to-one binding. “cyclo(29-32)[DPhe^11, Glu^29, Lys^32]rUcn(11-40) [compound 10]”: the dissociation constant Kd on mCRFR2β [3] (setting [10]) was 22.4 ± 4.6 nM; on rCRFR1 [4] (setting [11]), 47.1 ± 8.9 nM.

[DPhe^11]rUcn(11-40) [compound 7]: the Kd on mCRFR2β [3] (setting [10]) was 5.2 ± 1.5 nM; on rCRFR1 [4] (setting [11]), 33 ± 5.9 nM.

For α-helical CRF(9-41) (peptide), the Kd was 60.3 nM in test [5] and 6.4 nM in test [6].

As for “[DPhe^12, Nle^21,38]h/rCRF(12-41) [compound 5, reference compound]”, the Kd worked out at 17.7 ± 2.2 nM on mCRFR2β [3] (setting [10]) and 46.4 ± 9.4 nM on rCRFR1 [4] (setting [11]).

Turning to “[DLeu^11, Glu^12]rUcn(11-40) [compound 9]”, the Kd is 27.9 ± 3.4 nM at mCRFR2β [3] (setting [10]) and 91.1 ± 21.2 nM at rCRFR1 [4] (setting [11]).

Take “α-helical CRF(9-41) [compound 4, reference compound]”: the dissociation constant (Kd) on mCRFR2β [3] (setting [12]) came out at 6.4 ± 0.9 nM; at rCRFR1 [4] (setting [13]) it was 60.3 ± 10.6 nM.

As for “[DPhe^11, Glu^12]rUcn(11-40) [compound 8]”, the Kd at mCRFR2β [3] (setting [12]) is 9.5 ± 2 nM; on rCRFR1 [4] (setting [13]), 68.2 ± 20.5 nM.

As to [DPhe^12]oCRF(12-41) [compound 6], the Kd at mCRFR2β [3] (setting [10]) was 154 ± 26.8 nM; on rCRFR1 [4] (setting [11]) it was 290 ± 74.7 nM.

Take FHLLREVLEMARAEQLAQQAHSNRKLMEII (D-Phe at 12; Nle at 21 and 38 (h/rCRF numbering), also called compound 5) [[DPhe^12, Nle^21,38]h/rCRF(12-41)]: the Kd was found to be 17.7 nM in test [6] and 46.4 nM in [7].

For the molecule FHLLRTILELARTQSQRERAEQNRIIFDSV (D-Phe at 11 (rUcn numbering), also called compound 7) [[DPhe^11]rUcn(11-40)], the Kd in test [6] is 5.2 nM; in test [7] it was 33 nM.

B1: cyclo(29-32)[DPhe^11, Glu^29, Lys^32]rUcn(11-40) (peptide)
peptide: FHLLRTILELARTQSQREEAEKNRIIFDSV
modifications: D-Phe at 11; cyclo(29-32) side-chain bridge between Glu29 and Lys32 (rUcn numbering)
notes: also called compound 10
Turning to B1, the dissociation constant (Kd) in test [6] is 22.4 nM; in [7], 47.1 nM.

With FELLRTILELARTQSQRERAEQNRIIFDSV (D-Phe at 11 (rUcn numbering), also called compound 8) [[DPhe^11, Glu^12]rUcn(11-40)], the Kd in test [6] turned out to be 9.5 nM; in [7], 68.2 nM.

Take LELLRTILELARTQSQRERAEQNRIIFDSV (D-Leu at 11 (rUcn numbering), also called compound 9) [[DLeu^11, Glu^12]rUcn(11-40)]: the Kd in test [6] worked out at 27.9 nM; in test [7], 91.1 nM.

For the molecule FHLLREVLEMTKADQLAQQAHSNRKLLDIA (D-Phe at 12 (oCRF numbering), also called compound 6) [[DPhe^12]oCRF(12-41)], the affinity in test [7], expressed as Kd, was 290 nM.

B2: ATB-cyclo(30-33)[Nle^21,38, Glu^30, Ala^32, Lys^33]h/rCRF(13-41) (peptide)
peptide: {ATB}-HLLREVLE[Nle]ARAEQLAQEAAKNRKL[Nle]EII
modifications: lactam 18-21; ends not checked
notes: also called ATB-[Ala^32]astressin; compound 15
With B2, the Kd in test [6] came out at 2.6 nM. In test [8], this molecule had a Selectivity of 1.43.

B3: ATB-cyclo(30-33)[Nle^21,38, Glu^30, Tyr^32, Lys^33]h/rCRF(13-41) (peptide)
peptide: {ATB}-HLLREVLE[Nle]ARAEQLAQEAYKNRKL[Nle]EII
modifications: lactam 18-21; ends not checked
notes: also called ATB-[Tyr^32]astressin; compound 16
For B3, the Kd in test [6] amounted to 38.2 nM.

B4: astressin, cyclo(30-33)[DPhe^12, Nle^21,38, Glu^30, Lys^33]h/rCRF(12-41) (peptide)
peptide: FHLLREVLEBARAEQLAQEAHKNRKLBEII
modifications: D-Phe at 12; Nle at 21 and 38; cyclo(30-33) side-chain bridge between Glu30 and Lys33 (h/rCRF numbering)
notes: also called compound 3
B4: the Kd in test [7] and in test [9] was 5.7 nM in each case.

The record behind these values is patent US6846803B1, “Antagonists specific for the corticotropin-releasing factor receptor type 2 (CRFR2)” (priority 1998, dated 2005).
